Test results taken from paper PMC5156906.

Assays:
[1] = molecular target: Calcineurin (CN; CNA residues 1-370 / CNB residues 1-169), His6 tag cleaved (human) (UniProt Q08209); test: crystal structure; CN:NFATc1 LxVP complex, 2.6 Å, hanging drop, 0.1 M HEPES pH 7.0, 15% PEG4000, 25 °C; molecular replacement with PDB 4F0Z
[2] = molecular target: Calcineurin (CN; CNA residues 1-370 / CNB residues 1-169), His6 tag cleaved (human) (UniProt Q08209); test: ITC; VP-ITC, 25 °C; 20 mM Tris pH 7.5, 100 mM NaCl, 1.0 mM CaCl2, 0.5 mM TCEP; NFAT peptides, PALB2 and SYDE2 titrated into CN in the cell; one set of sites model
[3] = molecular target: Calcineurin (CNA residues 1-370 bound to CNB residues 1-169) (human) (UniProt Q08209); test: ITC; NFAT peptides, PALB2 or SYDE2 titrated into calcineurin in the cell; 25 °C; 20 mM Tris pH 7.5, 100 mM NaCl, 1.0 mM CaCl2, 0.5 mM TCEP; one set of sites model with n=1; averages of >=3 experiments (SYDE2: 2)
[4] = molecular target: CNA_(1-348) (human) (UniProt Q08209); test: ITC; VP-ITC, 25 °C; 20 mM Tris pH 7.5, 100 mM NaCl, 1.0 mM CaCl2, 0.5 mM TCEP; NFAT peptides, PALB2 and SYDE2 titrated into CN in the cell; one set of sites model

- stoichiometry N [1]: 1
- Kd [2]: 1800 nM
Molecule: NFATc1 LxVP peptide 383-400

- Kd [3]: 3100 nM
Molecule: PALB2 (partner and localizer of BRCA2) fragment (from UniProt Q86YC2 178-295) (domain or fragment)

- Kd [3]: 2600 nM
Molecule: SYDE2 (synapse defective protein 1 homolog 2) residues 232-289 (from UniProt Q5VT97 232-289) (domain or fragment)

- fold weaker binding than to CNA/B [4]: 2 fold
Molecule: DDQYLAVPQHPYQWAKPK [NFATc1 LxVP peptide 383-400]

One block for each molecule: values may come before it.
